Assay: Solubilization of taxol with sulfopropyloxy-β-cyclodextrin (Example 3)
Type: physicochemical
Conditions: 25° C., in water, neutral pH
Excerpt: Taxol was solubilized in the presence of sulfopropyloxy-β-cyclodextrinin the same way as described in example 2.

## CC(=O)O[C@H]1C(=O)[C@@]2(C)[C@H]([C@H](OC(=O)c3ccccc3)[C@]3(O)C[C@H](OC(=O)[C@H](O)[C@@H](NC(=O)c4ccccc4)c4ccccc4)C(C)=C1C3(C)C)[C@]1(OC(C)=O)CO[C@@H]1C[C@@H]2O (relative stereo) [taxol, [2aR-[2aα, 4β; 4αβ,6β,9α(αR*,βS*),11α-12α,12aα, 12bα]]-β-(Benzoylamino)-α-hydroxybenzene-propanoic acid 6,12-b-bis (acetyloxy)-12-(benzoyloxy)-2a,3,4,4a, 5,6,9,10,11,12,12a,12b-dodecahydro-4,11-dihyroxy-4a,8,13,13-tetramethyl-5-oxo-7,11-methano-1H-cyclodeca[3,4]-benz-[1,2-b]oxet-9-yl ester]
  decomposition of taxol in solution: found to decompose to unknown products
